Target: Kpc2 beta-lactamase (class A) (Klebsiella pneumoniae, UniProt Q9F663)
Assay type: biochemical
Conditions: nitrocefin reporter

Chains of the proteins cited; added tags and fusions are not shown. Residues count along the entry.
UniProt Q9F663, 25-293 limits assumed: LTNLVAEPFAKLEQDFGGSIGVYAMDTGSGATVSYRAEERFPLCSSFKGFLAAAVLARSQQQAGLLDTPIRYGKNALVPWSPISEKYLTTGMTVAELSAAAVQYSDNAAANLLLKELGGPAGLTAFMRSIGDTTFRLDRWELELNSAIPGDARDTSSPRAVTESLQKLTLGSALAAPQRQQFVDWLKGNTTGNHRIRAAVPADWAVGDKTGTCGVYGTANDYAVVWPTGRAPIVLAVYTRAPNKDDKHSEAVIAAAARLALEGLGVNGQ

Cc1onc(-c2ccccc2)c1C(=O)N[C@@H]1C(=O)N2[C@@H]1SC(C)(C)[C@@H]2C(=O)O [Penstapho ®]
hydrolysis rate symbol, (Vmax/V0)-1: + (0.1-1)

Source: US20220317138A1, “METHODS FOR DETERMINING THE CONCENTRATION OF A CARBAPENEM ANTIBIOTIC IN A BIOLOGICAL SAMPLE” (priority 2019, published 2022)
